Data: patent US7413876B2 (priority 1990, dated 2008)

Biological target: human β2-adrenergic receptor (hβAR) (Homo sapiens, UniProt P07550)
Experimental: After 36 hours, cells were harvested and spheroplasts were prepared as described. […] Briefly, the spheroplasts were resuspended in 50 mM Tris-HCl pH 7.4, 5 mM EDTA and were lysed by vortex mixing with glass beads for three one-min periods at 4° C.
FIG. 2 illustrates hβAR ligand binding to membranes from pYβAR2-transformed yeast cells. […] Specific binding was defined as the amount of total binding (circles) minus nonspecific binding measured in the presence of 10 μM (−) alprenolol (squares).

## (−) norepinephrine
  Ki: 6 ± 1.38 µM
